These results are taken from ChEMBL document CHEMBL1139156, “Novel naphthyridines are histamine H3 antagonists and serotonin reuptake transporter inhibitors” (Bioorg Med Chem Lett, 2007).

By UniProt entry, the sequences of proteins in these tests, tags left out.
UniProt P31652, whole entry: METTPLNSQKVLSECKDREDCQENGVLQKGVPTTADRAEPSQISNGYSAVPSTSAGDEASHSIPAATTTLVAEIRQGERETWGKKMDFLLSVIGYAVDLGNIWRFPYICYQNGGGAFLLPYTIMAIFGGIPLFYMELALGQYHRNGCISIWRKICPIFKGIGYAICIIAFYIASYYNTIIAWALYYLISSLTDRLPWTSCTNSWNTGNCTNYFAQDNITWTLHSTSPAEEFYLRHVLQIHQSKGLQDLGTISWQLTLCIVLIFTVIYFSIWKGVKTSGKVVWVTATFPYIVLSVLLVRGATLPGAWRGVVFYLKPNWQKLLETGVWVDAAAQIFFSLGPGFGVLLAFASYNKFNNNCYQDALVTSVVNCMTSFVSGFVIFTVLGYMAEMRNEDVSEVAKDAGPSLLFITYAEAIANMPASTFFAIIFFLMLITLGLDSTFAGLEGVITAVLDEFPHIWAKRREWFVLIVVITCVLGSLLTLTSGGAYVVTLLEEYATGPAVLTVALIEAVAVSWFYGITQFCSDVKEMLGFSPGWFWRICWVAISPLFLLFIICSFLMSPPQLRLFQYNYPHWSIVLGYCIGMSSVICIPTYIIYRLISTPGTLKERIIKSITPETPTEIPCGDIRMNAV

The assay has as its target Sodium-dependent serotonin transporter (Rattus norvegicus, UniProt P31652). Put plainly: Binding affinity to rat SERT.

As usually defined, the Ki is a dissociation constant, usually derived from enzyme kinetics or from competition with a known ligand. For the molecule `c1ccc(C2CNCc3cc(OCCCN4CCOCC4)ncc32)cc1` (stereo unspecified), the affinity, expressed as Ki, was 2000 nM.
